# Earlier results as cited in US20120134977A1 (YEDA RESEARCH AND DEVELOPMENT CO. LTD., priority 2009, published 2012).
# Tests used:
# [1] = background statement; cited from earlier work
# [2] = test system: CD1-mice; details: 0.68 nmol/mouse subcutaneous; Shechter et al. (2003); cited from earlier work
substance,measurement,setting,value
insulin,half-life in plasma,[1],5 to 6 min
same,effect of subcutaneous administration at this dose in mice,[2],severely hypoglycemic
